{"sequences": {"note": "By UniProt entry, the sequences of proteins in these tests, tags left out. Where a name states a change or a piece, a line headed by the entry shows the natural chain unless it says otherwise.", "UniProt Q3SYC2": "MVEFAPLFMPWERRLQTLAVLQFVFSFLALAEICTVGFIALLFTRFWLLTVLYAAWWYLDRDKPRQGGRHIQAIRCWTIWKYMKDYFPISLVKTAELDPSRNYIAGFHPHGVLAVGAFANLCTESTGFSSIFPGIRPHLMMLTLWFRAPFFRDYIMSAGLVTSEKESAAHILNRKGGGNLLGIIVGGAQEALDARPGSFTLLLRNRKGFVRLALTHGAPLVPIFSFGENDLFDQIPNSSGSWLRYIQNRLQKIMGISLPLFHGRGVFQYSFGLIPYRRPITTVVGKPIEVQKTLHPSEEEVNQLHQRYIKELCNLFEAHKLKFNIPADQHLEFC"}, "source": "patent US8993568B2", "about": "“Morpholinyl derivatives useful as MOGAT-2 inhibitors” (Eli Lilly and Company, priority 2012, dated 2015)", "molecular_target": "human MOGAT-2 (Homo sapiens (Human), UniProt Q3SYC2)", "experiment": "MOGAT-2 Cell Assay (Caco-2 cells stably transfected with human MOGAT-2, HDG substrate, LC-MS)", "assay_type": "cell-based", "conditions": "Caco-2 cells expressing human MOGAT-2; value (Std Dev., n)", "data": [{"compound": "C[C@@H](NS(C)(=O)=O)c1ccc(CN2CCO[C@@H](c3ccccc3)C2)cc1", "note": "(single isomer, unassigned; isomer 1) [Example 16]", "values": [{"measurement": "IC50", "result": 94, "unit": "nM"}]}]}
